## Yeast mating assay 1: variants of the scFv Ab-14

Reference: Engelhart et al. 2022, doi:10.1038/s41597-022-01779-4. File: FLAb, binding data.

Target peptide (SARS-CoV-2 spike, HR2 region): PDVDLGDISGINAS

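Phage display of a naive human antibody library on the peptide gave the parent. Variants in AAYL50 differ from the parent at up to three CDR positions; double and triple changes were sampled at random. Affinity was read by AlphaSeq, a pooled yeast mating assay with surface-displayed partners. The frequency of each diploid, read from paired DNA barcodes, reflects how well the two displayed proteins bind. Scores were corrected for input abundance and mapped to Kd with protein pairs of known affinity run in the same pool. The assay was run in three technical replicates.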

Parent: Ab-14, a human scFv built as VH, three GGGGS repeats, VL. Only the CDRs of the light chain vary.
VH: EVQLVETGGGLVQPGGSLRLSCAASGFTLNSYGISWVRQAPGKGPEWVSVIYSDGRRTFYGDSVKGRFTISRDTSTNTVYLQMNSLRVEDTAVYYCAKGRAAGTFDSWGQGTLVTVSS
VL: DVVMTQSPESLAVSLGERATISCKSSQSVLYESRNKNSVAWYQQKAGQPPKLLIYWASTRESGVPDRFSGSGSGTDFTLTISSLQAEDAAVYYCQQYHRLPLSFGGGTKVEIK

The parent's light chain CDRs are KSSQSVLYESRNKNSVA, WASTRES, QQYHRLPLS; each variant's own CDRs replace them letter for letter.
Values are log10 of the apparent Kd in nM; lower means stronger binding.
The mean shown is taken over the replicates in which the pair was detected.
A pair that was not seen in any replicate is written "nd"; this usually means weak binding, but a binder can also be missed.
The list is sorted by this average, lowest first, undetected variants last.
Parent in this assay: reference entry 0.65, copy in this library 1.68.
As a blank, each scFv also met three strains without target: over library AAYL50, 18% of these pairings were detected, typically at 4.19 and seldom below 2.99.

| CDR-L1 | CDR-L2 | CDR-L3 | mean, log10 nM | replicates with signal |
|---|---|---|---|---|
| KFSQSVLYESHNKNSVA | WASTRES | QQYHRNPLS | 0.47 | 3/3 |
| KSSQSVLYESYNKSSVA | WASTRES | QQYHRMPLS | 0.51 | 3/3 |
| KSSQSVLYESFNKNSVA | WGSTRES | QQYCRLPLS | 0.62 | 3/3 |
| KSSQSVLYTSRNKNSVA | MASTRES | QQYHRLPLS | 0.72 | 3/3 |
| KNSQSVLYGSRNKNSVA | WASTRYS | QQYHRLPLS | 0.73 | 3/3 |
| KSSQSVLYNSRNKNSVA | WASTREA | QYYHRLPLS | 0.76 | 3/3 |
| KSSQSALEESRNKNSVA | WADTRES | QQYHRLPLS | 0.99 | 3/3 |
| KSSWSVLYESFNKNSVA | WASTREL | QQYHRLPLS | 1.03 | 3/3 |
| KSSQSVLFESRNKNSVA | WGSTRES | QQYHRMPLS | 1.04 | 3/3 |
| KSSQSVLYESDNKNSVA | WASERAS | QQYHRLPLS | 1.22 | 3/3 |
| KSSQSVLYESRNFRSVA | WASTKES | QQYHRLPLS | 1.22 | 3/3 |
| KSSQSVKYESRNKNHVA | WASTRES | QQYDRLPLS | 1.32 | 3/3 |
| KSSQSVLYESRNKNSLA | WASTRED | QQYHRLPRS | 1.61 | 3/3 |
| KSSQSVLYHSRNKNSVA | WASTRCS | QQYHRLPLA | 1.66 | 3/3 |
| KSSQSVLYESRNKNSVA | FASFRES | QQYHRLPLS | 1.70 | 3/3 |
| KSSQSVLYMSRNKESVA | WASTRES | QQYTRLPLS | 1.73 | 3/3 |
| KSSQSWLYESRNKNMVA | WASTRES | QQYHRHPLS | 1.91 | 3/3 |
| KSSQSCLYESRNKNSVA | WASFREF | QQYHRLPLS | 1.92 | 3/3 |
| KSTQSVLYESMNKNSVA | WASTRES | QQYHRLGLS | 2.02 | 3/3 |
| KSSQMVLYESYNKNSVA | WASTRES | QQTHRLPLS | 2.07 | 3/3 |
| KSSQSVLYERRNKNSVA | WASTREQ | QQYHYLPLS | 2.52 | 2/3 |
| KSSQSVLYESRVKNSLA | WASKRES | QQYHRLPLS | 2.60 | 1/3 |
| KSSQKVLYESRNKNSVA | WVSTRES | QQQHRLPLS | 2.68 | 2/3 |
| KSSQSVLYESRNKNSVA | WAHHRES | QQYHELPLS | 2.74 | 3/3 |
| KSSQSVCYEKRNKNSVA | WASFRES | QQYHRLPLS | 2.77 | 3/3 |
| KSSQSVLYESRNKNKVA | WATTRES | QQYGRLPLS | 2.78 | 3/3 |
| PSEQSVLYESRNCNSVA | WASTRES | QQYHRLPLS | 2.90 | 1/3 |
| KSHQSVLYESRNKRSVA | WASTRES | QQYHRLPLS | 2.98 | 2/3 |
| KSSQSVLYESRNKNQVA | WASTRES | QQYHNMPLS | 3.20 | 3/3 |
| KSAQSVLYESRNKNSVQ | WASTRVS | QQYHRLPLS | 3.21 | 1/3 |
| KSWQSVLYEFRNKNSVA | WASTRES | QQYHRLPLS | 3.23 | 2/3 |
| TSSQSVLYESRNKNSVA | WASSRES | QQYHRLPLS | 3.30 | 3/3 |

Second part, the sequence after the result:

| mean, log10 nM | replicates with signal | CDR-L1 | CDR-L2 | CDR-L3 |
|---|---|---|---|---|
| 3.31 | 3/3 | KKSQSVLYESKNKNSVA | WASTRLS | QQYHRLPLS |
| 3.50 | 3/3 | KSSQSVLYERRDKNSVA | WASTRES | QQYHRLPLN |
| 3.54 | 3/3 | KSSQSVLYTSRMKNSVA | WAVTRES | QQYHRLPLS |
| 3.55 | 1/3 | KSSQSVLYESRNHNSDA | WASTRES | QQYHRIPLS |
| 3.58 | 3/3 | KSSQSKLYESRNRNSVA | WASTRES | QKYHRLPLS |
| 3.71 | 1/3 | KSSGSVLYESRNKNSVC | WASTRES | QQYHRYPLS |
| 3.80 | 1/3 | KSRQSVLYEARNKNSVA | WASTRES | QQSHRLPLS |
| 3.86 | 3/3 | KWSQNVLYESRNKNSVA | WDSTRES | QQYHRLPLS |
| 3.87 | 2/3 | KSSQSVLYESRNGNSVA | WASTRES | QEYHRLPLS |
| 3.99 | 1/3 | KSSQSVLYESRNKNSVA | KASTREW | CQYHRLPLS |
| 4.21 | 2/3 | KSSHSVLYESRNKNSVA | WASTRES | QQMHRIPLS |
| 4.35 | 1/3 | KSSQSVLYEYRNKNSVQ | WASTRES | QQYHRLKLS |
| 4.44 | 1/3 | ESSVSVKYESRNKNSVA | WASTRES | QQYHRLPLS |
| 4.65 | 2/3 | KSSQPVLYESRNKNSEA | WASTRLS | QQYHRLPLS |
| 4.83 | 1/3 | KSSVSVLYESRNKNSVA | WASTFES | QVYHRLPLS |
| 4.93 | 2/3 | KSSQSVLFESRNKFSVA | WASTRES | QQYHRLPES |
| 5.12 | 1/3 | GSSQSVEYESRNKNTVA | WASTRES | QQYHRLPLS |
| 5.16 | 1/3 | KSSQSVLYESRNQNSVA | WASTRES | QIYHRLPNS |
| 5.19 | 3/3 | KSSQSVLYESRNKNSPA | WASCRES | QQYHRLPYS |
| 5.22 | 1/3 | KSSQSVLYECRNKNSMA | WASTRES | QQYHRCPLS |
| nd | 0/3 | ISSQSVLYESRNKNSVA | WASTRES | QQEHRLPES |
| nd | 0/3 | KSSQSVLYESRNKNSVA | IARTRES | QQYHRVPLS |
| nd | 0/3 | KSSQSVLYEVRNKNSVA | WASHRES | QQYHRDPLS |
| nd | 0/3 | KSSQWVLYESRNKNSVA | WASTGES | QCYHRLPLS |
| nd | 0/3 | KSSQSVLYESRNKNSVA | WASTREV | QQYYRLPTS |
| nd | 0/3 | KSSQSVLYESHEKNSVA | WASTPES | QQYHRLPLS |
| nd | 0/3 | KSSQSVWYESRNKNSHA | WASTREY | QQYHRLPLS |
| nd | 0/3 | KSSQSVLYESRNKNSKA | WASTMEC | QQYHRLPLS |
| nd | 0/3 | KSRQSVLYESRNKNSVR | WASTRES | CQYHRLPLS |
| nd | 0/3 | KSFQSVLYESRNKNSVA | WASTRES | QQYQRLPWS |
| nd | 0/3 | KSSQSVLYESRNKNSVA | WASHRES | QQMHRLTLS |
| nd | 0/3 | KYSQSVLYESRNFNSVA | WASTGES | QQYHRLPLS |
| nd | 0/3 | KSPQSVLYESRNKNSVA | WNSTRES | QQYHRLPLS |

Top 4 of the variants detected in all replicates, tightest first:

CDR-L1,CDR-L2,CDR-L3,"mean, log10 nM",replicates with signal
KFSQSVLYESHNKNSVA,WASTRES,QQYHRNPLS,0.47,3/3
KSSQSVLYESYNKSSVA,WASTRES,QQYHRMPLS,0.51,3/3
KSSQSVLYESFNKNSVA,WGSTRES,QQYCRLPLS,0.62,3/3
KSSQSVLYTSRNKNSVA,MASTRES,QQYHRLPLS,0.72,3/3